Measured values reported in ChEMBL document CHEMBL1131688, “Solution-phase and solid-phase synthesis of novel transition state inhibitors of coagulation enzymes incorporating a piperidinyl moiety” (Bioorg Med Chem Lett, 1999).

Target: Prothrombin (Homo sapiens, UniProt P00734)
Assay: Inhibitory activity against thrombin

CC1CNc2c(cccc2S(=O)(=O)N[C@@H](CCCNC(=N)N)C(=O)N2CCC(C)C[C@@H]2C(=O)O)C1 (single isomer, unassigned) [ARGATROBAN]
IC50: 550 nM
